Measured values from paper PMC10009755, “Discovery and Characterization of BAY-805, a Potent and Selective Inhibitor of Ubiquitin-Specific Protease USP21” (Journal of Medicinal Chemistry, 2023).

Protein sequences, listed by entry. Tags and fused reporters are not part of them. Lines headed by an entry give the natural chain unless they say otherwise; changes in a name come on top. Residues count along the entry.
UniProt P54764, 20-986: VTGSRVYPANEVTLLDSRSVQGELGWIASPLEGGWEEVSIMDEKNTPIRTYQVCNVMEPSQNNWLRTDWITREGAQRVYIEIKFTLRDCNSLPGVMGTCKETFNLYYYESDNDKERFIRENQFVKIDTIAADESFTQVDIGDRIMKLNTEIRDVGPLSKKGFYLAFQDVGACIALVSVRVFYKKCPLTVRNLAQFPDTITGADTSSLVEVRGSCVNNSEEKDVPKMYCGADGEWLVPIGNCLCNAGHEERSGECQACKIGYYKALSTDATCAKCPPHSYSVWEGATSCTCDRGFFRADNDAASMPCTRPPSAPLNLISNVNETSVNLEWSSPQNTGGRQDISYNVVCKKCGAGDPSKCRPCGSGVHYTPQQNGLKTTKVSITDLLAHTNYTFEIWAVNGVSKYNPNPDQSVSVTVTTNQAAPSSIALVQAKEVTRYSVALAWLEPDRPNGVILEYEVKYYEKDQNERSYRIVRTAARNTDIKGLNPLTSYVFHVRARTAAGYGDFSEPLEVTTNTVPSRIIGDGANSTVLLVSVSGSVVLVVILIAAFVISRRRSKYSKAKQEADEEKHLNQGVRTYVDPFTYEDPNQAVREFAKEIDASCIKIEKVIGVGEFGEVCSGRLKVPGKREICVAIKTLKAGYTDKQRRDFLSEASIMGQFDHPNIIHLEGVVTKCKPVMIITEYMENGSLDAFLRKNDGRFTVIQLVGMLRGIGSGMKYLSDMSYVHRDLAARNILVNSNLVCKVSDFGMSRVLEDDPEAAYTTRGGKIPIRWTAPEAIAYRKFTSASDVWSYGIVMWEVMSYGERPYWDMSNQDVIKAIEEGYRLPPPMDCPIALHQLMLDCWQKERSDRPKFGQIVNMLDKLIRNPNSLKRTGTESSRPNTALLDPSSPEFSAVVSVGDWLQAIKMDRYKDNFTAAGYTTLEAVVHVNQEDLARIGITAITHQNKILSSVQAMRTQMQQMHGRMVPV
UniProt P36896, 24-505: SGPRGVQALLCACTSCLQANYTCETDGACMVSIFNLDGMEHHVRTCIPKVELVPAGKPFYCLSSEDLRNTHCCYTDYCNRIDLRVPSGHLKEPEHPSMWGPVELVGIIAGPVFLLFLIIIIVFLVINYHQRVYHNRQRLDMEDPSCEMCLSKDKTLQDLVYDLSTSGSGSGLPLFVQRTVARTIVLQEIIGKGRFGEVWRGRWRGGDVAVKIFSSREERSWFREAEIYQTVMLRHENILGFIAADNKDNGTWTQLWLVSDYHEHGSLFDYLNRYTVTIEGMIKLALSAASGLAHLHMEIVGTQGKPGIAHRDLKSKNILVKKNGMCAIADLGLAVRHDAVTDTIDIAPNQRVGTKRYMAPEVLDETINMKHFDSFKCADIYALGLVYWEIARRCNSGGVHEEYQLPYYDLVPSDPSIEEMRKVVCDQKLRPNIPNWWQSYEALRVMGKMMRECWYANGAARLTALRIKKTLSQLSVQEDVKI
UniProt Q16539, whole entry: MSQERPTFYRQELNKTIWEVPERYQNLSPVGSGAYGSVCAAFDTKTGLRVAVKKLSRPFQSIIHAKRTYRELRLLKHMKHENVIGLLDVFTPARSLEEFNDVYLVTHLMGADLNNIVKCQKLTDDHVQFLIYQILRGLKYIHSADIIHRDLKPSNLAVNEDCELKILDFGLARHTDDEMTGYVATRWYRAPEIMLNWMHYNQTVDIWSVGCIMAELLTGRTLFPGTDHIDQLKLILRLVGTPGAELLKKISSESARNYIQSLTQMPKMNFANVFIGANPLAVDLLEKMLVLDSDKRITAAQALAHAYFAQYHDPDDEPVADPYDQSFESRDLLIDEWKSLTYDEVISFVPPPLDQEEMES
UniProt P52564: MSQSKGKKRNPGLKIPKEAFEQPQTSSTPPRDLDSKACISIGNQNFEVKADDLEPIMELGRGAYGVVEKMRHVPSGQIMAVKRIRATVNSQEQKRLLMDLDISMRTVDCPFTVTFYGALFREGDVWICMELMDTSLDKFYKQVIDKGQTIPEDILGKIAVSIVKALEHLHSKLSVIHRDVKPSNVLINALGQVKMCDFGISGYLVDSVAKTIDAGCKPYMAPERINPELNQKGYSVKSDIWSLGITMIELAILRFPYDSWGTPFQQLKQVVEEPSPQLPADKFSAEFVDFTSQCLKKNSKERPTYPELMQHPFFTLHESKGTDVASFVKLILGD
UniProt P48729: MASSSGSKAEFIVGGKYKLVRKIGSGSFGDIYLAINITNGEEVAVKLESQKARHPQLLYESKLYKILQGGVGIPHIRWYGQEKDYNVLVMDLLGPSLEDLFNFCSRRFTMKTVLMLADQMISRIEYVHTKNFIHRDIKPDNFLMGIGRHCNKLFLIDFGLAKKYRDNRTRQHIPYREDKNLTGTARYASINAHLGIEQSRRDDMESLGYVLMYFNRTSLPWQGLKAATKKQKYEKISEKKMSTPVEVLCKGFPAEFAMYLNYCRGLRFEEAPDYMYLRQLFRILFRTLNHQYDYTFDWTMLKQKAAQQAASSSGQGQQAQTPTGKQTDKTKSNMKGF
UniProt Q96PN8: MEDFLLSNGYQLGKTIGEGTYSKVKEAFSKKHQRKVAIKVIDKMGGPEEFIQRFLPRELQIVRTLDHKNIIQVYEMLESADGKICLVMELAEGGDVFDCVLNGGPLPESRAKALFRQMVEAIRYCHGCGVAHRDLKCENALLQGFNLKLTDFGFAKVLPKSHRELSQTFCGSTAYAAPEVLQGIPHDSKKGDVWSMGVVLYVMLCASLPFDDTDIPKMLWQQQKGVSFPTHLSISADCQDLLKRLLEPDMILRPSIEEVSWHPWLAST
UniProt Q5TCX8: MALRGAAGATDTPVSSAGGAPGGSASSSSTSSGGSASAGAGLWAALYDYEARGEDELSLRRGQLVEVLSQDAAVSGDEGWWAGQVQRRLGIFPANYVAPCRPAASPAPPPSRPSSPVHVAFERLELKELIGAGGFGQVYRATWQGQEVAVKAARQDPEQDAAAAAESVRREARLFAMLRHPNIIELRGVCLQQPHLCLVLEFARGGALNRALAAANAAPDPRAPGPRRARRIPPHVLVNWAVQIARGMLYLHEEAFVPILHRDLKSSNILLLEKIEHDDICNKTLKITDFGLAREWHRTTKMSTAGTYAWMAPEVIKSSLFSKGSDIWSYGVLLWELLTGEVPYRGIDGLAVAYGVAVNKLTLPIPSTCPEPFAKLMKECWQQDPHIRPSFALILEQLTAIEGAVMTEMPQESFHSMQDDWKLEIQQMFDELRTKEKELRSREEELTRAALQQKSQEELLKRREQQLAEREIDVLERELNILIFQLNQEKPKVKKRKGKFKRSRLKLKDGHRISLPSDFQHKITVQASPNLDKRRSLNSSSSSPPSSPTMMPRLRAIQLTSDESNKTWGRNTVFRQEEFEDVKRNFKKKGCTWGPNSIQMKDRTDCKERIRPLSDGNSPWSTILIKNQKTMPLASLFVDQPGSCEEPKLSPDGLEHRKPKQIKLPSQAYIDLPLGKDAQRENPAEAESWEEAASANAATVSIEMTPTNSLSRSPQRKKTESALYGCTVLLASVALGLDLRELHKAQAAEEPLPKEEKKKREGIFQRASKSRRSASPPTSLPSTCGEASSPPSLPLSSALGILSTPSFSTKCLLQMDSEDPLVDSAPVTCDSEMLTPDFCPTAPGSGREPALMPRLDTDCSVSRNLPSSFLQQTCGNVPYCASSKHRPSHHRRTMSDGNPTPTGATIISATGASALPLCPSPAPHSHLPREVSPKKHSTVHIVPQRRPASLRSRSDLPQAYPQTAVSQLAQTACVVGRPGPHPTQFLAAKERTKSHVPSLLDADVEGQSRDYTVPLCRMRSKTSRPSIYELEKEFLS
UniProt Q14164: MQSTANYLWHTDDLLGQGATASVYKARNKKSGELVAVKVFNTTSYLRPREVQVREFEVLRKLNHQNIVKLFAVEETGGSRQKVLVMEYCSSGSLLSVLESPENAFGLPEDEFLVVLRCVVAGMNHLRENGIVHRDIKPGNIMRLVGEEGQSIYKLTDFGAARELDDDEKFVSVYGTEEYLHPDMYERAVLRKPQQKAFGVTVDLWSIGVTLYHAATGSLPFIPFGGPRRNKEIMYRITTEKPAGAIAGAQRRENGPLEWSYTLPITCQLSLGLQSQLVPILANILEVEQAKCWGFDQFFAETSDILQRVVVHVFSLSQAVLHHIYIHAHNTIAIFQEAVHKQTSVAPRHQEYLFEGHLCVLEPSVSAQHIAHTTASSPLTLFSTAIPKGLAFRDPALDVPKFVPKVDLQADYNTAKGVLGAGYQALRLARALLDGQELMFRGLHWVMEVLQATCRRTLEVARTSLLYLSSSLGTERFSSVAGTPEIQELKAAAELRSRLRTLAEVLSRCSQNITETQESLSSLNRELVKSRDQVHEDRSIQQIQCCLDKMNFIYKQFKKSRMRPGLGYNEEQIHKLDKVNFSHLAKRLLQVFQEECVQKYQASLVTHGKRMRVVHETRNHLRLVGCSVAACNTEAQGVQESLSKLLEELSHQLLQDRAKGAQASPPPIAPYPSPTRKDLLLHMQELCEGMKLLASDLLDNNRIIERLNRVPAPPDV
UniProt P40818, 734-1110: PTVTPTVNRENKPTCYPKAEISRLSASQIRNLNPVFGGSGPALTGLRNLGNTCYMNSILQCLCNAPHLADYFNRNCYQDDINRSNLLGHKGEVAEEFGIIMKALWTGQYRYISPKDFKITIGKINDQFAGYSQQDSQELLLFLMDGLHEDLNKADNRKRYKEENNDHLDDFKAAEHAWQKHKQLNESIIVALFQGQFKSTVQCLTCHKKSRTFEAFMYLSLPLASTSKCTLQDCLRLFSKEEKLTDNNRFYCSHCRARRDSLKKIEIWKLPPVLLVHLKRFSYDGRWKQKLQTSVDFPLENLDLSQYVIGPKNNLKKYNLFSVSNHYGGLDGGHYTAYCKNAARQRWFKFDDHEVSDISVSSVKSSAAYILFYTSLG
UniProt Q05655: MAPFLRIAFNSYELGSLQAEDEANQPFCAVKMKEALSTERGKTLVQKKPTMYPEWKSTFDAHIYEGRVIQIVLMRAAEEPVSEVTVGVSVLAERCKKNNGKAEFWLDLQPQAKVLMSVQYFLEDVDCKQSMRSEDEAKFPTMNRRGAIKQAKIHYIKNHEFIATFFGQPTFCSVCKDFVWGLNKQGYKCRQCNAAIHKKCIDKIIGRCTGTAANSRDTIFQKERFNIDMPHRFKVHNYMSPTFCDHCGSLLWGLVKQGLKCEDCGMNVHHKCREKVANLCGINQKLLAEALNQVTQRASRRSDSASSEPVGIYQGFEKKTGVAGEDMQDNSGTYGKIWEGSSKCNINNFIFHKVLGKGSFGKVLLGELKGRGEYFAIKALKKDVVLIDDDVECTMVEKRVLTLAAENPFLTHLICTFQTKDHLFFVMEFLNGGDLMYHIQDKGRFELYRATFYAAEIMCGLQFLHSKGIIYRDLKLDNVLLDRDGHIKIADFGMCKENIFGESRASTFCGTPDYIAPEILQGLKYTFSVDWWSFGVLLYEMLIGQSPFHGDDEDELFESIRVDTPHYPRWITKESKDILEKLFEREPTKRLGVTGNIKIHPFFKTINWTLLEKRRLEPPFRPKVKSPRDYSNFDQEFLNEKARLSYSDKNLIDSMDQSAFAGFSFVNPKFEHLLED
UniProt Q9Y4E8: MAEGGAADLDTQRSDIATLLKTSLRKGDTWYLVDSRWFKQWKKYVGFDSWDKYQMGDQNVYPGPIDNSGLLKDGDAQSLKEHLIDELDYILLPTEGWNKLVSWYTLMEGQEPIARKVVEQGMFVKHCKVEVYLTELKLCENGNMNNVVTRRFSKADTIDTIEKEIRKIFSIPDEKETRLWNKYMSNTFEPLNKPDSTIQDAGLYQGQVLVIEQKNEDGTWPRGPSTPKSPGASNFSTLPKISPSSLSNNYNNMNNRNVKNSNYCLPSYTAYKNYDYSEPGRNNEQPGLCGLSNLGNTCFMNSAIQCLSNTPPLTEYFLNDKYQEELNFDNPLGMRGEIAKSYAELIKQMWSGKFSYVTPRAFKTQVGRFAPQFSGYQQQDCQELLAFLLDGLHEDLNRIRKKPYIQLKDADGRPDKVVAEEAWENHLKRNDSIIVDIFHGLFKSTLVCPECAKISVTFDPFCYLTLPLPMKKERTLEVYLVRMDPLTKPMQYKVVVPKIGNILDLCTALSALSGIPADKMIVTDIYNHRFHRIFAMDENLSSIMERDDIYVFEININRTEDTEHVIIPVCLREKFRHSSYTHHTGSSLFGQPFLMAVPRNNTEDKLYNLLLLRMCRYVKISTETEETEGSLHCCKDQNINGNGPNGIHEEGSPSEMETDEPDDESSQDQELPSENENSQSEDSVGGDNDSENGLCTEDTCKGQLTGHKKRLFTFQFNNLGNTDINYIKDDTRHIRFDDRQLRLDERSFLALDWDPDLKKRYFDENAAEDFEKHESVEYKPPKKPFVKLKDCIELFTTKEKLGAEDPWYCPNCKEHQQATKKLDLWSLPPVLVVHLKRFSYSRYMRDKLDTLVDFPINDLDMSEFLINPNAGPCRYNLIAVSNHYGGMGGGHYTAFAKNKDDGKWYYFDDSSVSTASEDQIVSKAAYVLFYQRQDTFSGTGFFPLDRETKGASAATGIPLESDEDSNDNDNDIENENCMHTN

Columns and labels:
Test in all cases: biochemical
[1] = biological target: MLK1(h) (Homo sapiens, UniProt P80192)
[2] = biological target: EphA4(h) (Homo sapiens, UniProt P54764)
[3] = biological target: CDK2/cyclinA(h) (Homo sapiens, UniProt P24941)
[4] = biological target: ALK4(h) (Homo sapiens, UniProt P36896)
[5] = biological target: CDK13/cyclinK(h) (Homo sapiens, UniProt Q14004)
[6] = biological target: CDK14/cyclinY(h) (Homo sapiens, UniProt O94921)
[7] = biological target: CK2alpha2(h) (Homo sapiens, UniProt P19784)
[8] = biological target: SAPK2a(h) (Homo sapiens, UniProt Q16539)
[9] = biological target: MKK6(h) (Homo sapiens, UniProt P52564)
[10] = biological target: ErbB2(h) (Homo sapiens, UniProt P04626)
[11] = biological target: ChaK1(h) (Homo sapiens, UniProt Q96QT4)
[12] = biological target: MARK4(h) (Homo sapiens, UniProt Q96L34)
[13] = biological target: CDK17/cyclinY(h) (Homo sapiens, UniProt Q00537)
[14] = biological target: Fgr(h) (Homo sapiens, UniProt P09769)
[15] = biological target: Ataxin3 (Homo sapiens, UniProt P54252); settings: read-out: Activity (% Control)
[16] = biological target: MSK1(h) (Homo sapiens, UniProt O75582)
[17] = biological target: CK1alpha(h) (Homo sapiens, UniProt P48729)
[18] = biological target: cSRC(h) (Homo sapiens, UniProt P12931)
[19] = biological target: CaMKI(h) (Homo sapiens, UniProt Q14012)
[20] = biological target: WNK4(h) (Homo sapiens, UniProt Q96J92)
[21] = biological target: Bmx(h) (Homo sapiens, UniProt P51813)
[22] = biological target: ARK5(h) (Homo sapiens, UniProt O60285)
[23] = biological target: CaMKIIgamma(h) (Homo sapiens, UniProt Q13555)
[24] = biological target: TSSK3(h) (Homo sapiens, UniProt Q96PN8)
[25] = biological target: MLK4(h) (Homo sapiens, UniProt Q5TCX8)
[26] = biological target: Aurora-A(h) (Homo sapiens, UniProt O14965)
[27] = biological target: KDR(h) (Homo sapiens, UniProt P35968)
[28] = biological target: IKKepsilon(h) (Homo sapiens, UniProt Q14164)
[29] = biological target: Peptidase, Angiotensin Converting Enzyme (Homo sapiens, UniProt P12821); settings: read-out: % Inh.
[30] = biological target: LATS1(h) (Homo sapiens, UniProt O95835)
[31] = biological target: RIPK2(h) (Homo sapiens, UniProt O43353)
[32] = biological target: USP8 (Homo sapiens, UniProt P40818); settings: read-out: Activity (% Control)
[33] = biological target: MRCKalpha(h) (Homo sapiens, UniProt Q5VT25)
[34] = biological target: RIPK1(h) (Homo sapiens, UniProt Q13546)
[35] = biological target: CK1gamma1(h) (Homo sapiens, UniProt Q9HCP0)
[36] = biological target: EphB2(h) (Homo sapiens, UniProt P29323)
[37] = biological target: PAK2(h) (Homo sapiens, UniProt Q13177)
[38] = biological target: PKCalpha(h) (Homo sapiens, UniProt P17252)
[39] = biological target: PKCdelta(h) (Homo sapiens, UniProt Q05655)
[40] = biological target: PKCiota(h) (Homo sapiens, UniProt P41743)
[41] = biological target: USP15 (Homo sapiens, UniProt Q9Y4E8); settings: read-out: Activity (% Control)

CC(C)C[C@H](NC(=O)C1(C(F)(F)F)CCCCC1)C(=O)Nc1nnc(Cc2ccc(C#N)cc2)s1 [Compound 22, CC(C)C[C@H](NC(=O)C1(CCCCC1)C(F)(F)F)C(=O)Nc2nnc(Cc3ccc(cc3)C#N)s2] gave an inhibition at 10 µM [1] of -1.43%, an inhibition at 10 µM [2] of 9.3% and an inhibition at 10 µM [3] of -15.3%. For the same compound, the inhibition at 10 µM [4] was 3.46%, the inhibition at 10 µM [5] was 3.1% and the inhibition at 10 µM [6] was 0.44%. For the same compound, the inhibition at 10 µM [7] was 0.25%, the inhibition at 10 µM [8] was 4.9% and the inhibition at 10 µM [9] was -8.15%. It also gave an inhibition at 10 µM [10] of -8.06%, an inhibition at 10 µM [11] of -14.6% and an inhibition at 10 µM [12] of 3.52%. The inhibition at 10 µM [13] was 6.25%, the inhibition at 10 µM [14] was 10.9% and the remaining activity at 1 µM [15] was 90%. It also gave a remaining activity at 10 µM [15] of 90%, an inhibition at 10 µM [16] of 6.97% and an inhibition at 10 µM [17] of 5.47%. The inhibition at 10 µM [18] was 18%, the inhibition at 10 µM [19] was -2.64% and the inhibition at 10 µM [20] was 9.62%. For the same compound, the inhibition at 10 µM [21] was 16.1%, the inhibition at 10 µM [22] was 10.7% and the inhibition at 10 µM [23] was 2.22%. It also gave an inhibition at 10 µM [24] of 15.5%, an inhibition at 10 µM [25] of -1.94% and an inhibition at 10 µM [26] of 21.1%. It also gave an inhibition at 10 µM [27] of 11.9%, an inhibition at 10 µM [28] of -10.6% and an inhibition at 10 µM [29] of -28%. The inhibition at 10 µM [30] was 11.9%, the inhibition at 10 µM [31] was 6.19% and the remaining activity at 10 µM [32] was 77%. For the same compound, the remaining activity at 50 µM [32] was 69%, the inhibition at 10 µM [33] was 8.27% and the inhibition at 10 µM [34] was 0.89%. For the same compound, the inhibition at 10 µM [35] was -1.52%, the inhibition at 10 µM [36] was -7.93% and the inhibition at 10 µM [37] was 0.75%. It also gave an inhibition at 10 µM [38] of 5.89%, an inhibition at 10 µM [39] of 5.78% and an inhibition at 10 µM [40] of 2.1%. The remaining activity at 1 µM [41] was 101% and the remaining activity at 10 µM [41] was 105%.

In the case of CC(C)C[C@@H](NC(=O)C1(C(F)(F)F)CCCCC1)C(=O)Nc1nnc(Cc2ccc(C#N)cc2)s1 [Compound 21, N-[(1R)-1-[[5-[(4-Cyanophenyl)methyl]-1,3,4-thiadiazol-2-yl]carbamoyl]-3-methyl-butyl]-1-(trifluoromethyl)cyclohexanecarboxamide], the inhibition at 10 µM [1] is reported as 1.96%, the inhibition at 10 µM [2] is reported as 5.39% and the inhibition at 10 µM [3] is reported as -20.1%. The inhibition at 10 µM [4] was 3.05%, the inhibition at 10 µM [5] was 2.39% and the inhibition at 10 µM [6] was 0.61%. It also gave an inhibition at 10 µM [7] of -3%, an inhibition at 10 µM [8] of 2.13% and an inhibition at 10 µM [9] of 9.24%. It also gave an inhibition at 10 µM [10] of -7.69%, an inhibition at 10 µM [11] of -12.9% and an inhibition at 10 µM [12] of 9.89%. It also gave an inhibition at 10 µM [13] of 9.31%, an inhibition at 10 µM [14] of -3.78% and a remaining activity at 1 µM [15] of 109%. For the same compound, the remaining activity at 10 µM [15] was 106%, the inhibition at 10 µM [16] was 6.32% and the inhibition at 10 µM [17] was 7.91%. For the same compound, the inhibition at 10 µM [18] was 17.8%, the inhibition at 10 µM [19] was 0.22% and the inhibition at 10 µM [20] was 9.12%. It also gave an inhibition at 10 µM [21] of 22.9%, an inhibition at 10 µM [22] of -0.18% and an inhibition at 10 µM [23] of 5.77%. For the same compound, the inhibition at 10 µM [24] was 24.5%, the inhibition at 10 µM [25] was 5.22% and the inhibition at 10 µM [26] was 21.2%. The inhibition at 10 µM [27] was 15.9%, the inhibition at 10 µM [28] was -4.62% and the inhibition at 10 µM [29] was -33%. It also gave an inhibition at 10 µM [30] of 21.9%, an inhibition at 10 µM [31] of 0.2% and a remaining activity at 10 µM [32] of 83%. The remaining activity at 50 µM [32] was 71%, the inhibition at 10 µM [33] was -0.05% and the inhibition at 10 µM [34] was -2.93%. The inhibition at 10 µM [35] was 8.24%, the inhibition at 10 µM [36] was -5.06% and the inhibition at 10 µM [37] was 2.68%. For the same compound, the inhibition at 10 µM [38] was -0.68%, the inhibition at 10 µM [39] was 7.71% and the inhibition at 10 µM [40] was 0.81%. For the same compound, the remaining activity at 1 µM [41] was 118% and the remaining activity at 10 µM [41] was 113%.
